The values that follow come from ChEMBL document CHEMBL1158436, “In vitro inhibition of human erythrocyte glutathione reductase by some new organic nitrates” (Bioorg Med Chem Lett, 2009).

Chains of the proteins cited; added tags and fusions are not shown. Residues count along the entry.
UniProt P00390, 44-522 limits assumed: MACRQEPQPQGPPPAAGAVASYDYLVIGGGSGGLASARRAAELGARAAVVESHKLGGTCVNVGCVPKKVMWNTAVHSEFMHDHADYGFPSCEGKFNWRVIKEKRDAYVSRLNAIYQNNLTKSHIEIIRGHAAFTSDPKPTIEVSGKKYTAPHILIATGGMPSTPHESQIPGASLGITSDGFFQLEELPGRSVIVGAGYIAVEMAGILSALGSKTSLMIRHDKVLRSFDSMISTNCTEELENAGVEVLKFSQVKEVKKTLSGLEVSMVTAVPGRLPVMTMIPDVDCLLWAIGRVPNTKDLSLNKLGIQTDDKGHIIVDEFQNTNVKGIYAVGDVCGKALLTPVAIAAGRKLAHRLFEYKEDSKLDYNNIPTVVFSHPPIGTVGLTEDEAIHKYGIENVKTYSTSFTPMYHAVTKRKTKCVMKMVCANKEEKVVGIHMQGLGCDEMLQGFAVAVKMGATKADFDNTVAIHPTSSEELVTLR

The test deals with Glutathione reductase, mitochondrial (Homo sapiens, UniProt P00390). Description: Inhibition of human erythrocyte glutathione reductase.

With `O=[N+]([O-])OC1CC(O[N+](=O)[O-])C(O)CC1O` (stereo unspecified), the IC50 (as a rule, the concentration that gives 50% inhibition) is 8.1 µM and affinity was put at a Ki of 17.9 µM.

On to `O=[N+]([O-])OC1CCC(O[N+](=O)[O-])C(O)C1O` (stereo unspecified), for which the IC50 was found to be 7.17 µM and the Ki (as a rule, the equilibrium dissociation constant of an inhibitor or competing ligand from its target) was 17.4 µM.

The compound `O=[N+]([O-])OC1CC(O)C(O[N+](=O)[O-])CC1O` (stereo unspecified) returned an IC50 of 8.71 µM and a Ki of 18.4 µM.
